Assay results: ChEMBL document CHEMBL2034949, “Small Molecule Inhibitors of Regulator of G Protein Signalling (RGS) Proteins” (ACS Med Chem Lett, 2012)

Experiment: Selectivity ratio of IC50 for GSK3beta to IC50 for RGS4

Ratio IC50: 5000
Structure (SMILES): CCCCn1c(=O)sn(CC)c1=O
